Experimental findings from ChEMBL document CHEMBL3400063, “Novel pyrrole carboxamide inhibitors of JAK2 as potential treatment of myeloproliferative disorders” (Bioorg Med Chem, 2015) are described below.

For assay [1], the species on record is Homo sapiens. The assay is described as follows: Selectivity ratio of IC50 for recombinant epitope-tagged JAK3 (781 to 1124) (unknown origin) to IC50 for recombinant epitope-tagged JAK2 (808 to 1132) (unknown origin).
Assay [2] is filed under the species Homo sapiens. Briefly: Selectivity ratio of IC50 for recombinant epitope-tagged JAK1 (861 to 1152) (unknown origin) to IC50 for recombinant epitope-tagged JAK2 (808 to 1132) (unknown origin).

For the compound `CCc1ccc(Cl)cc1-n1cc(-c2ncnc3[nH]ccc23)cc1C(N)=O`, the Ratio IC50 in assay [1] and in assay [2] was 1 in each case.
